Test results taken from patent publication US20220098265A1 (MEDIMMUNE LIMITED, priority 2012, published 2022).

Experiment: Stability testing of peptides in human plasma
Assay type: in vitro ADME
Conditions: Human Plasma at 24 h, 37° C.; read-out: % stable peptide
Protocol: Stability testing of peptides in plasma. The stability in plasma of the peptides […], […], […] and […] was determined as follows. […] The frozen blank plasma from human, rat and mouse had been thawed and heated to a temperature of 37° C. before addition of the stock solution. The spiked plasma samples were gently mixed and allowed to equilibrate for about 5 minutes before start of experiment. The plasma samples were incubated for 48 hours in a Galaxy® CO2 incubator at 37° C. […] The samples were stored at -70° C. until analysis. Plasma samples were assayed as follows. The 30 μL plasma samples were protein precipitated with […] of cold ethanol in a 96-well low bind plate (Eppendorf Protein LoBind). After mixing and centrifugation 100 μl the supernatant was transferred to a new plate and 1 μl was injected onto an analytical column. The analysis was performed using a μLC-system ([…]) coupled to a medium high resolution mass spectrometer (Perkin Elmer PenTOF) with positive electrospray ionisation. […] Flow: 0.1 ml/min using a slow reversed phase gradient. […] Products with +1 mass may arise from deamidation at amide groups of glutamine or at the C-terminus. Cleavage products arise from the action of the protease DPP IV in plasma. […] Peaks were integrated and % remaining peptide was calculated: […] […]

CCCCCCCCCCCCCCCC(=O)N[C@@H](CCC(=O)NCCCC[C@H](NC(=O)[C@H](CC(=O)O)NC(=O)[C@H](CO)NC(=O)[C@@H](NC(=O)[C@H](Cc1ccccc1)NC(=O)[C@@H](NC(=O)CNC(=O)[C@H](CCC(N)=O)NC(=O)[C@H](CO)NC(=O)[C@@H](N)Cc1c[nH]cn1)[C@@H](C)O)[C@@H](C)O)C(=O)N[C@@H](CO)C(=O)N[C@@H](CCC(=O)O)C(=O)N[C@@H](Cc1ccc(O)cc1)C(=O)N[C@@H](CC(C)C)C(=O)N[C@@H](CC(=O)O)C(=O)N[C@@H](CO)C(=O)N[C@@H](CCC(=O)O)C(=O)N[C@@H](CCCNC(=N)N)C(=O)N[C@@H](C)C(=O)N[C@@H](CCCNC(=N)N)C(=O)N[C@@H](CC(=O)O)C(=O)N[C@@H](Cc1ccccc1)C(=O)N[C@H](C(=O)N[C@@H](C)C(=O)N[C@@H](Cc1c[nH]c2ccccc12)C(=O)N[C@@H](CC(C)C)C(=O)N[C@@H](CCC(=O)O)C(=O)N[C@@H](C)C(=O)NCC(=O)NCC(=O)O)C(C)C)C(=O)O [Peptide G933]
remaining at 24 h: 86%
